Only a part is listed here, and it is no random draw. Some tests of the compounds listed are not included; inactive here does not mean inactive elsewhere. Activity calls are given as the source filed them.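 How the source made its calls: active means mean added fluorescence quench of at least 8% versus neutral control, with both replicates also reaching 8%; inconclusive means only one of the mean or replicate conditions met; inactive means mean below 8% and not both replicates reaching 8%.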
experiment: F508del CFTR correction, initial screen, CFBE line, single point (AID 720511); settings: CFBE cells, YFP halide quenching, at 7.58 µM, stronger effect = higher value, % fluorescence drop versus neutral controls, stimulated with forskolin plus potentiator P3;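 further: corrector assay measuring rescue of mutant channel to the surface after 24 h compound exposure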

Question: Which activity (quench increase) does the source give for `COc1cc(SC)ccc1C(=O)NCC1(N(C)C)CCCCC1` here?
Answer: Its activity (quench increase) is inactive: -1.32%.

Question: Which activity (quench increase) does the source give for `CCN(CC)CC(C)C(C)OC(=O)C(O)(c1ccccc1)c1ccccc1` (stereo unspecified) here?
Answer: Its activity (quench increase) is inactive: 1.57%.

Question: Which activity (quench increase) does the source give for `Cc1ccc(C(=O)NCC2(N3CCCCC3)CCCCC2)cc1` here?
Answer: The activity (quench increase) was inactive: 0.412%.

Question: With `O=C(NCC1(N2CCCCC2)CCCCC1)c1cc([N+](=O)[O-])ccc1Cl` as the compound, how does the activity (quench increase) read?
Answer: Its activity (quench increase) is inactive: -0.98%.

Question: With `CN1[C@@H]2CC[C@H]1CC(OC(=O)C(O)(c1ccccc1)c1ccccc1)C2` (stereo partly specified) as the compound, how does the activity (quench increase) read?
Answer: Its activity (quench increase) is inactive: -0.74%.

Question: Which activity (quench increase) does the source give for `O=C(NCC1(N2CCCCC2)CCCCC1)c1cc(F)c(F)cc1Cl` here?
Answer: The activity (quench increase) was inactive: 2.12%.

Question: For `C=CCN1CCN(CCOC(=O)C(O)(c2ccccc2)c2ccccc2)CC1`, which activity (quench increase) is on record?
Answer: The activity (quench increase) was inactive: -2.65%.

Question: Which activity (quench increase) does the source give for `O=C(NCC1(N2CCCCC2)CCCCC1)c1cccc(Br)c1` here?
Answer: The activity (quench increase) was inactive: -0.786%.

Question: Which activity (quench increase) does the source give for `Cc1cc(C(=O)NCC2(N3CCCCC3)CCCCC2)ccc1[N+](=O)[O-]` here?
Answer: Its activity (quench increase) is inactive: -1.83%.

Question: For `COc1ccc(C(=O)NCC2(N(C)C)CCCCC2)cc1`, which activity (quench increase) is on record?
Answer: The activity (quench increase) was inactive: -4.12%.

Question: For `CN(C)c1ccc(C(=O)NCC2(N(C)C)CCCCC2)cc1`, which activity (quench increase) is on record?
Answer: The activity (quench increase) was inactive: 1.1%.

Question: With `Cc1ccccc1C(=O)NCC1(N2CCCCC2)CCCCC1` as the compound, how does the activity (quench increase) read?
Answer: Its activity (quench increase) is inactive: -0.36%.

Question: Which activity (quench increase) does the source give for `COc1ccc(Cl)cc1C(=O)NCC1(N(C)C)CCCCC1` here?
Answer: The activity (quench increase) was inactive: 1.37%.

Question: For `COc1cccc(C(=O)NCC2(N3CCCCC3)CCCCC2)c1`, which activity (quench increase) is on record?
Answer: Its activity (quench increase) is inactive: 1.2%.

Question: For `O=C(NCC1(N2CCCCC2)CCCCC1)c1cccc(Cl)c1`, which activity (quench increase) is on record?
Answer: Its activity (quench increase) is inactive: -0.073%.

Question: Which activity (quench increase) does the source give for `CN(C)C1(CNC(=O)c2ccc(Br)cc2)CCCCC1` here?
Answer: The activity (quench increase) was inactive: -0.292%.

Question: For `COc1cc(C(=O)NCC2(N(C)C)CCCCC2)c([N+](=O)[O-])cc1OC`, which activity (quench increase) is on record?
Answer: The activity (quench increase) was inactive: 1.43%.

Question: For `COc1ccc(Br)c(C(=O)NCC2(N3CCCCC3)CCCCC2)c1`, which activity (quench increase) is on record?
Answer: The activity (quench increase) was inactive: -1.77%.

Question: Which activity (quench increase) does the source give for `C=C(C)C#CC(O)(C(=O)OC1CCN(C)CC1)c1ccccc1` (stereo unspecified) here?
Answer: Its activity (quench increase) is inactive: -3.51%.

Question: With `O=C(OCCN1CCCC1)C(O)(c1ccccc1)c1ccccc1` as the compound, how does the activity (quench increase) read?
Answer: Its activity (quench increase) is inactive: -1.23%.

Question: With `CC(C)Oc1ccc(C(=O)NCC2(N(C)C)CCCCC2)cc1` as the compound, how does the activity (quench increase) read?
Answer: Its activity (quench increase) is inactive: 4.68%.

Reference: PubChem BioAssay AID720511 (Broad Institute, 2013)
